The values below come from BindingDB's records for 11063601.

Protein sequences, listed by entry. Tags and fused reporters are not part of them. Residues count along the entry.
UniProt Q05941, 23-502 limits assumed: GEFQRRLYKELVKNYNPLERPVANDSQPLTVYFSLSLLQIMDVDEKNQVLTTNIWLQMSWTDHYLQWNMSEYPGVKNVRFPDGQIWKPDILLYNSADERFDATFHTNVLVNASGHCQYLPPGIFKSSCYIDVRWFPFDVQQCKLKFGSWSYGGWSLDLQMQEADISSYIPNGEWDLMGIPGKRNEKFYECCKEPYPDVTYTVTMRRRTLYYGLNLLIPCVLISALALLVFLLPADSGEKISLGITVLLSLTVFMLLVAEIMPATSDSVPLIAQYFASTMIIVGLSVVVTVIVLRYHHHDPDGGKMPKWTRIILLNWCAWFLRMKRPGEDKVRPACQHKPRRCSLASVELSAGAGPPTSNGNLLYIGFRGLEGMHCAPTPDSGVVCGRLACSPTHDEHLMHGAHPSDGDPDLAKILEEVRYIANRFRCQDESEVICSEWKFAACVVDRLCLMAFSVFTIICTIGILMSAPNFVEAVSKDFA

SMILES strings stand for the structures.

The experiment addresses Neuronal acetylcholine receptor subunit alpha-7 (Rattus norvegicus, UniProt Q05941). The experiment can be described thus: Potency was determined by measuring current activation in Xenopus oocytes expressing rat alpha-7 nAChRs.

The term EC50 denotes the concentration at which the effect is half-maximal. High values mean a need for much substance, low ones an effect from little substance. In the case of `CN1CC2(CN3CCC2CC3)OC1=O` (stereo unspecified), the concentration giving a half-maximal response (EC50) was determined as 6 mM.
